Consider 67 molecules from PubChem BioAssay AID449763 (Sanford-Burnham Center for Chemical Genomics, 2010).

Structures are written as SMILES. This is a selection; strong and weak results do not stand in their true shares. Some salts or complexes appear as unconnected parts, following the source record. Active and inactive are the calls of the source.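 How the source made its calls: active means at 10 µM dose, activation of 40% or more, normalized to positive control; inactive means the rest.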

The assay in a line: PERK-eIF2a-CHOP pathway stimulators – cell-based, CHO-CHOP luciferase reporter, luminescence, uHTS, primary screen (AID 449763).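 Further: 100% = tunicamycin at 10 µg/mL and 0% = DMSO alone.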 Particulars: UPR activation, at 10 µM, stronger effect = higher value, percent of tunicamycin response over DMSO baseline. An outline of the steps:
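Assay system: CHO-CHOP cells, stable luciferase reporter of PERK-eIF2a-CHOP signalling / Buffer or medium: F12 plus 10% serum / Compound dosing: one dose, 10 µM in 0.5% DMSO / Times: 6 h compound treatment, 37 °C / Technique: luciferase luminescence / Read-out: % reporter activation, DMSO baseline versus tunicamycin full activation / Benchmarks: tunicamycin and DMSO controls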
For orientation: In a reporter assay the amount or activity of a reporter protein is the signal.
Consider `CCOC(=O)c1ccc(NP(C)(=O)Oc2ccc(OC)cc2)cc1` (configuration not stated), for which the activation is inactive: 0.831%.

With `O=[N+]([O-])c1cc([N+](=O)[O-])c(O)c([N+](=O)[O-])c1.c1ccc(Oc2ccncc2)cc1`, the activation was inactive: -2.28%.

In the case of `Cc1cc(C)cc(OP(C)(=O)Nc2ccc(SC(F)(F)F)cc2)c1` (configuration not stated), the activation was inactive: 0.635%.

Take `CP(=O)(NC(=O)Nc1ccccc1)Oc1ccccc1` (configuration not stated): the activation was inactive: 0.16%.

Consider `CCc1ccc(OP(C)(=O)N2CCN(c3ccc([N+](=O)[O-])cc3)CC2)cc1` (configuration not stated), for which the activation was inactive: -0.678%.

Take `CP(=O)(Oc1ccccc1)OC(c1ccccc1)C(F)(F)F` (configuration not stated): the activation is inactive: -2.54%.

Take `Cc1cccc(C)c1OP(C)(=O)Nc1ccc(SC(F)(F)F)cc1` (configuration not stated): the activation was inactive: -4.19%.

As for `CP(=O)(Nc1ccc(SC(F)(F)F)cc1)Oc1ccc(Cl)cc1` (configuration not stated), the activation was inactive: 0.449%.

Turning to `COc1ccccc1OP(C)(=O)Nc1ccccc1` (configuration not stated), the activation was inactive: 11.5%.

On to `CP(=O)(Nc1ccccc1Br)Oc1ccccc1` (configuration not stated), for which the activation was inactive: 0.514%.

Consider `CP(=S)(Nn1cnnc1)Oc1ccccc1` (configuration not stated), for which the activation is inactive: -0.994%.

On to `COc1ccc(OP(C)(=O)Nc2cccc(F)c2)cc1` (configuration not stated), for which the activation was inactive: -0.76%.

Turning to `COc1ccccc1OP(C)(=O)Nc1cc(Cl)ccc1C` (configuration not stated), the activation is inactive: 4.94%.

`Cc1cc(C)cc(OP(C)(N)=O)c1` (configuration not stated): the activation was inactive: 1.58%.

For `CCOC(=O)c1ccc(NP(C)(=O)Oc2ccccc2)cc1` (configuration not stated), the activation is inactive: -0.516%.

On to `Cc1ccc(NP(C)(=O)Oc2ccccc2)c(C)c1` (configuration not stated), for which the activation was inactive: -0.553%.

For `COc1ccccc1OP(C)(=O)Nc1ccc(C)cc1` (configuration not stated), the activation was inactive: 1.26%.

For `Cc1cccc(C)c1OP(C)(N)=O` (configuration not stated), the activation is inactive: -0.674%.

For the molecule `CC(C)(C)c1ccc(OP(C)(=O)Nc2ccc(SC(F)(F)F)cc2)cc1` (configuration not stated), the activation is inactive: 1.21%.

`O=[N+]([O-])c1cc([N+](=O)[O-])c(Nc2cccnc2)c([N+](=O)[O-])c1`: the activation was inactive: -0.0308%.

For `CCN(CC)CCCOC(=O)C(O)(c1ccccc1)c1ccccc1`, the activation was inactive: -0.419%.

In the case of `CCc1ccc(OP(C)(=O)O)cc1`, the activation is inactive: -0.861%.

Consider `COc1ccccc1OP(C)(=O)Nc1ccc(C)cc1C` (configuration not stated), for which the activation was inactive: -1.05%.

As to `CP(=O)(Nc1ccccn1)Oc1ccccc1` (configuration not stated), the activation is inactive: 0.346%.

As for `Cc1c(NP(C)(=O)Oc2ccc(C(C)C)cc2)c(=O)n(-c2ccccc2)n1C` (configuration not stated), the activation was inactive: -1.09%.

For `O=[N+]([O-])c1cc([N+](=O)[O-])c(Nc2ccccn2)c([N+](=O)[O-])c1`, the activation was inactive: 0.733%.

Regarding `CN(C)CCOC(=O)C(O)(c1ccccc1)C1CCCC1` (configuration not stated), the activation was inactive: -0.0555%.

As for `COc1ccc(OP(C)(=O)Nc2ccccn2)cc1` (configuration not stated), the activation was inactive: -1.75%.

Regarding `COc1ccccc1OP(C)(=O)Nc1ccc(Br)cc1` (configuration not stated), the activation was inactive: -1.32%.

Turning to `CP(=O)(Nc1ccc(Cl)cc1Cl)Oc1ccccc1` (configuration not stated), the activation is inactive: -1.53%.

In the case of `CP(=O)(OCCOc1ccccc1)OCCOc1ccccc1`, the activation is inactive: -1.25%.

With `Cc1nc2ccc3ccccc3c2o1.O=[N+]([O-])c1cc([N+](=O)[O-])c(O)c([N+](=O)[O-])c1`, the activation is inactive: 3.56%.

On to `COc1ccc(OP(C)(=O)Nc2ccccc2Br)cc1` (configuration not stated), for which the activation is inactive: 0.867%.

`COc1ccccc1OP(C)(=O)Nc1ccc(C)c(C)c1` (configuration not stated): the activation is inactive: -2.67%.

On to `Cc1cc(C)cc(OP(C)(=O)Nc2cccc(C(F)(F)F)c2)c1` (configuration not stated), for which the activation is inactive: -0.649%.

For `CP(=O)(OC12CC3CC(CC(C3)C1)C2)OC12CC3CC(CC(C3)C1)C2`, the activation was inactive: 1.63%.

On to `CCOC(=O)c1ccc(NP(C)(=O)Oc2ccc(Cl)cc2)cc1` (configuration not stated), for which the activation was inactive: 1.63%.

With `Nc1ccc2c(ccc3cccnc32)n1.O=[N+]([O-])c1cc([N+](=O)[O-])c(O)c([N+](=O)[O-])c1`, the activation is inactive: -0.59%.

On to `CN(C)C(=O)c1c([N+](=O)[O-])cc([N+](=O)[O-])cc1[N+](=O)[O-]`, for which the activation is inactive: 5.27%.

In the case of `CP(=O)(Nc1ccc(Cl)cc1)Oc1ccc(F)cc1` (configuration not stated), the activation was inactive: 1.02%.

For the molecule `COc1ccccc1OP(C)(=O)Nc1ccccc1Br` (configuration not stated), the activation was inactive: -0.06%.

Regarding `CC(C)(C)c1ccc(OP(C)(=O)O)cc1`, the activation is inactive: 1.95%.

As to `CCc1ccc(OP(C)(=O)Nc2cccnc2)cc1` (configuration not stated), the activation was inactive: -1.44%.

In the case of `CP(=O)(Oc1ccccc1)N1CCOC1=O` (configuration not stated), the activation was inactive: 0.0182%.

Take `O=C(OCCCN1CCCC1)C(O)(c1ccccc1)C1CCCCC1` (configuration not stated): the activation is inactive: 1.73%.

With `COc1ccccc1OP(C)(=O)Nc1c(C)n(C)n(-c2ccccc2)c1=O` (configuration not stated), the activation was inactive: -1.99%.

Consider `COc1ccc(OP(C)(=O)Nc2ccc(Br)cc2)cc1` (configuration not stated), for which the activation was inactive: 0.265%.

`CCN(CC)CC(O)COC(=O)C(O)(c1ccccc1)C1CCCCC1` (configuration not stated): the activation is inactive: -0.145%.

As for `Cc1ccccc1NP(C)(=O)Nc1ccccc1C`, the activation was inactive: -1.72%.

With `CP(=O)(Nc1ccc2c(c1)OCCO2)Oc1ccccc1` (configuration not stated), the activation is inactive: -2.01%.

`CCOP(C)(=S)SCC(=O)NC(C)(CC)C(=O)O` (configuration not stated): the activation is inactive: 2.75%.

For the molecule `CP(=O)(Nc1ccc(SC(F)(F)F)cc1)Oc1ccc(F)cc1` (configuration not stated), the activation was inactive: -0.973%.

For the molecule `O=[N+]([O-])c1cc([N+](=O)[O-])c(NCC2CCS(=O)(=O)C2)c([N+](=O)[O-])c1` (configuration not stated), the activation was inactive: -3.47%.

As for `COc1ccc(NP(C)(=O)Oc2ccccc2OC)cc1` (configuration not stated), the activation is inactive: -1.33%.

Consider `CN(C)CCOC(=O)C(O)(c1ccccc1)C1CCCCC1` (configuration not stated), for which the activation was inactive: -1.58%.

`COc1ccc(OP(C)(=O)Nc2cccc(Br)c2)cc1` (configuration not stated): the activation is inactive: -1.99%.

In the case of `O=[N+]([O-])c1cc([N+](=O)[O-])c(OC2CCCCC2O)c([N+](=O)[O-])c1` (configuration not stated), the activation is inactive: 0.585%.

With `CCCCCOc1ccc(NP(C)(=O)Oc2ccc(Cl)cc2Cl)cc1` (configuration not stated), the activation is inactive: -0.0496%.

On to `CP(=O)(Nc1ccccc1)Oc1ccc(F)cc1` (configuration not stated), for which the activation was inactive: -0.387%.

Consider `CCN(CC)CCCOC(=O)C(O)(c1ccccc1)C1CCCCC1` (configuration not stated), for which the activation was inactive: -0.64%.

On to `COc1ccc(OP(C)(=O)Nc2ccc(SC(F)(F)F)cc2)cc1` (configuration not stated), for which the activation was inactive: 0.938%.

Turning to `CCOC(=O)c1ccc(NP(C)(=O)Oc2ccc(F)cc2)cc1` (configuration not stated), the activation was inactive: -0.374%.

On to `COc1ccc2c(c1O)-c1c(O)c(OC)cc3c1[C@H](C2)[N+](C)(C)CC3.O=[N+]([O-])c1cc([N+](=O)[O-])c([O-])c([N+](=O)[O-])c1[O-]`, for which the activation was inactive: 1.34%.

Take `O=C(OCCN1CCN(CCOCc2ccccc2)CC1)C(O)(c1ccccc1)c1ccccc1`: the activation is inactive: 0.443%.

For `O=C(OC1CN2CCC1CC2)c1ccc([N+](=O)[O-])cc1` (configuration not stated), the activation was inactive: 0.884%.

Take `CC(C)c1ccc(OP(C)(=O)Nc2ccc(SC(F)(F)F)cc2)cc1` (configuration not stated): the activation is inactive: -2.2%.

`CP(=O)(Nc1ccccc1F)Oc1ccccc1` (configuration not stated): the activation is inactive: -0.937%.
